# PubChem BioAssay AID1460 (National Center for Advancing Translational Sciences (NCATS), 2008)
# Protein sequences, listed by entry. Tags and fused reporters are not part of them. Residues count along the entry.
# UniProt P10636, 561-689 P618L limits assumed: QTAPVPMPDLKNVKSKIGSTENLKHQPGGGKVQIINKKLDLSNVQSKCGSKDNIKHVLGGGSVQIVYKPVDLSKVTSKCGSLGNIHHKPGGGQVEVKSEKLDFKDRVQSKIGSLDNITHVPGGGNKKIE
# The entries are a selection whose mix differs from that of the whole data set. Some of these compounds have results that are not shown, active ones among them. Results filed as inconclusive are left out. Active and inactive are the calls of the source. Calls follow the shape of the dose curve; as a rule, active = well fitted inhibition curve with a large enough effect; inconclusive = small, poorly fitted or top-dose-only effect; inactive = flat fitted curve, though single readings scatter.
# Target: Microtubule-associated protein tau (Homo sapiens) (UniProt P10636)
# Assay: qHTS for Inhibitors of Tau Fibril Formation, Thioflavin T Binding; also: nearly all actives have a fitted effect of over 55% in size
# Details: recombinant tau K18 P301L (four-repeat tau fragment), heparin-induced fibrillization, ThT fluorescence; at 57.4 µM (top of the series)
# % is scaled to controls: 0 for no effect and ±100 for the full control effect.
row,Compound,"activity, negative = inhibition"
1,CCN(CC)CC(C)C(C)OC(=O)C(O)(c1ccccc1)c1ccccc1 (stereo unspecified),inactive: 2.94%
2,CN(C)C1(CNC(=O)c2cccc(Cl)c2)CCCCC1,inactive: -2.5%
3,CC(C)N1C(=O)CC2(CCN(CCOC(=O)C(O)(c3ccccc3)c3ccccc3)CC2)C1=O,inactive: 0.106%
4,CN(C)C1(CNC(=O)c2ccccc2F)CCCCC1,inactive: 1.48%
5,O=C(NCC1(N2CCCCC2)CCCCC1)c1cc([N+](=O)[O-])ccc1Cl,inactive: -13.3%
6,C=CCN1CCN(CCOC(=O)C(O)(c2ccccc2)c2ccccc2)CC1,inactive: -3.37%
7,CCOc1cccc(C(=O)NCC2(N(C)C)CCCCC2)c1,inactive: 7.43%
8,CCN1CCCC(OC(=O)C2(O)c3ccccc3C=Cc3ccccc32)C1 (stereo unspecified),inactive: 7.25%
9,CN(C)C1(CNC(=O)c2ccccc2[N+](=O)[O-])CCCCC1,inactive: -9.21%
10,Cc1ccccc1C(=O)NCC1(N2CCCCC2)CCCCC1,inactive: 2.86%
11,CN(C)C1CCCC1OC(=O)C(O)(c1ccccc1)c1ccccc1 (stereo unspecified),inactive: 2.5%
12,CCCCOc1ccccc1C(=O)NCC1(N(C)C)CCCCC1,inactive: -3.58%
13,COc1cccc(C(=O)NCC2(N3CCCCC3)CCCCC2)c1,inactive: -2.16%
14,COc1ccc(C(=O)NCC2(N(C)C)CCCCC2)cc1Cl,inactive: 3.28%
15,COc1cc(C(=O)NCC2(N(C)C)CCCCC2)cc(OC)c1OC,inactive: 6.63%
16,Cc1cccc(C(=O)NCC2(N(C)C)CCCCC2)c1,inactive: 8.01%
17,CC(C)Oc1ccc(C(=O)NCC2(N(C)C)CCCCC2)cc1,inactive: -0.72%
18,CN(C)c1cccc(C(=O)NCC2(N(C)C)CCCCC2)c1,inactive: -3.55%
19,COc1cccc(C(=O)NCC2(N3CCOCC3)CCCCC2)c1,inactive: -2.98%
20,O=C(OC1CN2CCC1CC2)C(CO)(c1ccccc1)c1ccccc1 (stereo unspecified),inactive: 5.48%
21,CC(C)COc1ccc(C(=O)NCC2(N(C)C)CCCCC2)cc1,inactive: 1.98%
